Results as given in article PMC5700161, “Structure of human immunoproteasome with a reversible and noncompetitive inhibitor that selectively inhibits activated lymphocytes” (Nature Communications, 2017).

Assays:
β1i = β1i (Homo sapiens, UniProt P28065); assay: IC50 against β1i of human immunoproteasome (Ac-PAL-AMC); conditions: read-out: IC50 1i - PAL (β1i), substrate Ac-PAL-AMC
β1c = β1c (Homo sapiens, UniProt P28072); assay: IC50 against β1c of human constitutive proteasome (Z-LLE-AMC); conditions: read-out: IC50 1c - LLE (β1c), substrate Z-LLE-AMC
β2i = β2i (Homo sapiens, UniProt P40306); assay: IC50 against β2i of human immunoproteasome (Z-VLR-AMC); conditions: read-out: IC50 2i - VLR (β2i), substrate Z-VLR-AMC
β2c = β2c (Homo sapiens, UniProt Q99436); assay: IC50 against β2c of human constitutive proteasome (Z-VLR-AMC); conditions: read-out: IC50 2c - VLR (β2c), substrate Z-VLR-AMC
human β5c = human β5c (Homo sapiens, UniProt P20618+P28074); assay: IC50 determination against human β5c of c-20S
human β5i = human β5i (Homo sapiens, UniProt P20618+P28062); assay: IC50 determination against human β5i of i-20S

IC50 (β1i) | IC50 (β1c) | IC50 (β2i) | IC50 (β2c) | IC50 (β1i; tested form: TFA) | IC50 (β1c; tested form: TFA) | IC50 (β2i; tested form: TFA) | IC50 (β2c; tested form: TFA) | inhibitory activity against β5c (in words) (human β5c) | inhibitory activity against β5i (in words) (human β5i) | SMILES
> 50 µM | > 50 µM | > 50 µM | > 50 µM | – | – | – | – | – | – | Cc1cc(C(=O)N[C@@H](CC(=O)NC(C)(C)C)C(=O)NCCNC(=O)c2cc(-c3ccccc3F)ccc2F)no1
– | – | – | – | > 50 µM | > 50 µM | > 50 µM | > 50 µM | – | – | CC(C)(C)NC(=O)C[C@H](N)C(=O)NCCNC(=O)c1cc(-c2ccccc2F)ccc1F
> 50 µM | > 50 µM | > 50 µM | > 50 µM | – | – | – | – | abolished the inhibitory activities | abolished the inhibitory activities | C[C@H](NC(=O)OC(C)(C)C)C(=O)NCCNC(=O)c1cc(-c2ccccc2F)ccc1F

The next lines start with the compound.

SMILES | IC50 (β1i) | IC50 (β1c) | IC50 (β2i) | IC50 (β2c) | IC50 (β1i; tested form: TFA) | IC50 (β1c; tested form: TFA) | IC50 (β2i; tested form: TFA) | IC50 (β2c; tested form: TFA) | inhibitory activity against β5c (in words) (human β5c) | inhibitory activity against β5i (in words) (human β5i)
CC(C)(C)NC(=O)C[C@H](NC(=O)CCc1ccccc1)C(=O)NCCCNC(=O)c1cccc(-c2ccccc2)c1 | > 50 µM | > 50 µM | > 50 µM | > 50 µM | – | – | – | – | – | –
CC(C)(C)OC(=O)NCC(=O)NCCNC(=O)c1cc(-c2ccccc2F)ccc1F | > 50 µM | > 50 µM | > 50 µM | > 50 µM | – | – | – | – | abolished the inhibitory activities | abolished the inhibitory activities

Like-named read-outs stand apart in the source and are kept apart here.
